Assay results from patent US10543279B2, “Pyrrolobenzodiazepine conjugates and their use for the treatment of cancer” (priority 2016, dated 2020).

How the values were obtained:
[1] = system: subcutaneous BT474 tumors; assay: BT474 xenograft testing; assay type: in vivo, mice
Experimental: (§1) (68-72° F.) and 40-60% humidity. […] The animal care and use program at CR Discovery Services is accredited by the Association for Assessment and Accreditation of Laboratory Animal Care International (AAALAC), which assures compliance with accepted standards for the care and use of laboratory animals.
Tumors were measured in two dimensions using calipers, and volume was calculated using the formula: […]

NCI-N87 = conditions: gastric carcinoma, ADC exposure 7 days, MTS
Experimental: (§2) A set of 8×10-fold dilutions of stock ADC were made in a 24 well plate by serial transfer of 100 μl onto 900 μl of cell culture medium.

BT474 = conditions: breast carcinoma, ADC exposure 5 days, MTS
Experimental: as §2

SKBR3 = conditions: breast carcinoma, ADC exposure 4 days, MTS
Experimental: as §2

[2] = system: subcutaneous JIMT-1 tumours; assay: JIMT-1 xenograft testing; assay type: in vivo, mice
Experimental: as §1

[3] = system: subcutaneous NCI-N87 tumours; assay: NCI-N87 xenograft testing; assay type: in vivo, mice
Excerpt: Female severe combined immune-deficient mice (Fox Chase SCID®, C.B-17/Icr-Prkdcscid, Charles River) were ten weeks old with a body weight (BW) range of 16.2 to 21.9 grams on Day 1 of the study. The animals were fed ad libitum water (reverse osmosis, 1 ppm Cl), and NIH 31 Modified and Irradiated Lab Diet® consisting of 18.0% crude protein, 5.0% crude fat, and 5.0% crude fibre. The mice were housed on irradiated Enricho'Cobs™ Laboratory Animal Bedding in static micro-isolators on a 12-hour light cycle at 20-22° C. (68-72° F.) and 40-60% humidity. CR Discovery Services specifically complies with the recommendations of the Guide for Care and Use of Laboratory Animals with respect to restraint, husbandry, surgical procedures, feed and fluid regulation, and veterinary care. The animal care and use program at CR Discovery Services is accredited by the Association for Assessment and Accreditation of Laboratory Animal Care International (AAALAC), which assures compliance with accepted standards for the care and use of laboratory animals. […]
The NCI-N87 cells used for implantation were harvested during log phase growth and Re-suspended in phosphate buffered saline (PBS) containing 50% Matrigel™ (BD Biosciences). On the day of tumour implant, each test mouse was injected subcutaneously in the right flank with 1×10^7 cells (0.1 mL cell suspension), and tumour growth was monitored as the average size approached the target range of 100 to 150 mm^3. Fourteen days later, designated as Day 1 of the study, mice were sorted according to calculated tumour size into groups each consisting of ten animals with individual tumour volumes ranging from 108 to 172 mm^3 and group mean tumour volumes of 133 mm^3.
Tumours were measured in two dimensions using calipers, and volume was calculated using the formula:
Treatment began on Day 1 in groups of 10 mice (n=10) with established subcutaneous NCI-N87 tumours (108-172 mm^3). […] Tumours were measured twice per week until the study was ended on Day 78. […] The time to endpoint (TTE) was calculated for each mouse. […]

[4] = Single dose toxicity study in rat / Therapeutic Index; assay type: in vivo; conditions: male rats, 1.5 mg/kg high dose group, single iv dose

trastuzumab-6
partial regressions (PR) ([1]; 0.3 mg/kg iv qd×1, n=10): four
partial regressions (PR) ([1]; 1.0 mg/kg iv qd×1, n=10): seven
complete regressions (CR), remained tumour-free survivor (TFS) at study end ([1]; 1.0 mg/kg iv qd×1, n=10, Day 60): one
IC50 (μg/ml) in NCI-N87 (NCI-N87): 0.024 µg/mL
IC50 (μg/ml) in BT474 (BT474): 1.935 µg/mL
IC50 (μg/ml) in SKBR3 (SKBR3): 0.085 µg/mL
partial regressions (PR) ([2]; 0.3 mg/kg iv qd×1, n=10): one
partial regressions (PR) ([2]; 1.0 mg/kg iv qd×1, n=10): two
complete regressions (CR), remained tumour-free survivors (TFS) at study end ([2]; 1.0 mg/kg iv qd×1, n=10, Day 64): three
partial regressions (PR) ([3]; 0.4 mg/kg iv qd×1, n=10): one
partial regressions (PR) ([3]; 0.6 mg/kg iv qd×1, n=10): three
minimum effective dose (tumour stasis for twenty-eight days) ([3]; SCID mice, iv qd×1, visual inspection of tumour volume plots): 0.4 mg/kg
adverse findings [4]: minimal adverse findings
